The values below come from patent publication US20100267952A1, “USE OF NOVEL COMPOUND HAVING AFFINITY FOR AMYLOID, AND PROCESS FOR PRODUCTION OF THE SAME” (NIHON MEDI-PHYSICS CO., LTD., priority 2007, published 2010).

Chains of the proteins cited; added tags and fusions are not shown. Residues count along the entry.
UniProt P05067, 672-711 limits assumed: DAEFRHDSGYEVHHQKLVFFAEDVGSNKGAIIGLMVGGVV

Bounds are passed on as bounds.

The assay has as its target T1, amyloid (aggregated Aβ1-40) (Homo sapiens, UniProt P05067).
T1 construct: Aβ1-40 (Peptide Institute, INC.) was dissolved in phosphate buffer (pH 7.4); purchased Peptide Institute, INC
Put plainly: Measurement of affinity with amyloid: inhibition of [125I]3′-I-BTA-0 binding. Conditions: [125I]3′-I-BTA-0 400 pmol/L, amyloid 1 μmol/L, 22° C., 3 hours. The method, then: Affinity of the present compounds with amyloid was examined by the following in vitro binding tests.
(1) Aβ1-40 (Peptide Institute, INC.) was dissolved in phosphate buffer (pH 7.4) and shaken at 37° C. for 62-72 hours, to obtain a 1 mg/mL suspension of aggregated Aβ (hereinafter referred to as amyloid suspension in this Example).
(3) According to the method described in a literature (Wang, Y., et al., J. Labeled Compounds Radiopharmaceut. 44, 5239 (2001)), [^125I]2-(3′-iodo-4′-aminophenyl)benzothiazole (hereinafter referred to as […]) was prepared from a labeling precursor 2-(4′-aminophenyl)benzothiazole, and dissolved in ethanol. […]
(7) The glass fiber filter used for the filtration of each sample solution was washed with a 0.1% bovine serum albumin-containing phosphate buffer (pH 7.4) (0.5 mL×5), and radioactivity of the glass fiber filter was measured with an autowell gamma system (manufactured by Aloka, Type: ARC-301B).
(8) Separately, a solution of containing 15 μmol/L of 6-Me-BTA-2, […] of [^125I]3′-I-BTA-0 and 1 μmol/L of Aβ1-40 were prepared and subjected to the same procedures as described above in (6) and (7) to measure a radioactivity level. The measured radioactivity level was defined as the background radioactivity level, and used in the calculation of the inhibition ratio (hereinafter referred to as BG). […]

In the case of `Cc1ccc2c(c1)sc(-c1ccc(N(C)C)cc1)[n+]2C` [Thioflavin T, reference compound], the 50% inhibitory concentration (IC50) is greater than 1000 nM.

The term IC50 denotes the point on the concentration scale where inhibition reaches its midpoint. Read a low IC50 as higher potency.
